# Literature values as cited in patent US6989159B2, “Pharmaceutical compositions containing lithium carbonate” (JDS Pharmaceuticals, LLC, priority 2000, dated 2006).
# Conditions: in vivo
smiles,measurement,value
O=C([O-])[O-].[Li+].[Li+] [Lithium carbonate],clearance relative to that of creatinine,about 20%
same,distribution volume,0.7–0.9
